This is an account of results in article PMC5897841, “Development of a multipurpose scaffold for the display of peptide loops” (Protein Engineering, Design and Selection, 2017).

In this experiment the target is cRAD-CK2β_((186–200)) display protein (Pyrococcus furiosus | human) (UniProt O74036). In words: SPR; Biacore T100, CM5, peptides or cRAD display proteins immobilised through their cysteine (240-400 RU), kinase as analyte 2.5 nM-2.5 μM, 25°C, 10 mM HEPES pH 7.4, 500 mM NaCl, 0.05% P20; 1:1 steady-state affinity model; CK2α data analysed at 200 s post-injection.

pKd: −log10 of the molar value.

“CK2α kinase (from UniProt P68400 2-329) (enzyme)” had a negative logarithm of the Kd (pKd) of 6.63.

As usually defined, the pKd is the negative decadic logarithm of the Kd, by convention in mol/L. Low values mean a large Kd, high ones a small Kd.
